Laboratory results: ChEMBL document CHEMBL1145958, “Furoyl and benzofuroyl pyrroloquinolones as potent and selective PDE5 inhibitors for treatment of erectile dysfunction” (J Med Chem, 2003)
pKi: −log10 of the molar value.

Target: cGMP-specific 3',5'-cyclic phosphodiesterase (Homo sapiens, UniProt O76074)
Experiment: Inhibitory activity against Phosphodiesterase 5 (PDE5) was evaluated

pKi	SMILES
8.75	CN1CCN(C(=O)c2ccc(-c3ccc(C(=O)N4Cc5c(nc6ccccc6c5O)C4c4ccc5c(c4)CCO5)o3)cc2)CC1 (configuration not stated)
8.48	O=C(c1cccnc1)N1Cc2c(nc3ccccc3c2O)C1c1ccc2c(c1)OCO2 (configuration not stated)
